Consider one compound from ChEMBL document CHEMBL1139480, “Urotensin-II receptor ligands. From agonist to antagonist activity” (J Med Chem, 2005).

This experiment concerns the target T1, Urotensin-2 receptor (Rattus norvegicus, UniProt P49684).
T1 sequence (P49684 whole entry): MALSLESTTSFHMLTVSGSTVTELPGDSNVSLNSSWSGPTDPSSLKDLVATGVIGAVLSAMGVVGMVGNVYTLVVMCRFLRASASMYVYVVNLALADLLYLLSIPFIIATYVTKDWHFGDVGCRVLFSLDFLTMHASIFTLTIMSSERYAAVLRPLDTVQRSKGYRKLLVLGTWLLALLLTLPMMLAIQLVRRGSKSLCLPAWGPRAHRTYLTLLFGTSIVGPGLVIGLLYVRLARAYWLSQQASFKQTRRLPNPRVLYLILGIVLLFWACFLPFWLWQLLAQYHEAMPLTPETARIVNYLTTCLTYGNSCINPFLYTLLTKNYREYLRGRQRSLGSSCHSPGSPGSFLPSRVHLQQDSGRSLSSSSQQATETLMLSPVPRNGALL
Put plainly: Antagonist activity at rat UT receptor. The format is functional. The following applies: read-out: pA2 (converted). The method in brief: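 Thoracic aorta from male albino Wistar rats (275–350 g), decapitated under ether anesthesia, was cut into paired strips in oxygenated Krebs–Henseleit and recorded isotonically under 5 mN load. The control strip received cumulative hU-II. The test strip received the antagonist for 30 min, then cumulative hU-II. KCl 80 mM at the end gave the maximal contraction. pK_B = log(dose ratio − 1) − log[antagonist], slope assumed −1.0, averaged over individual values. Competition was checked by Schild plot.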

Consider `CC(C)[C@H](NC(=O)[C@@H]1CSSC(C)(C)[C@H](NC(=O)[C@@H](N)CC(=O)O)C(=O)N[C@@H](Cc2ccccc2)C(=O)N[C@@H](Cc2c[nH]c3ccccc23)C(=O)N[C@@H](CCCN)C(=O)N[C@@H](Cc2ccc(O)cc2)C(=O)N1)C(=O)O`, for which the Kb was 39.8 nM (antagonist).
